The record followed here is patent US10538534B2 (Colorado State University Research Foundation, priority 2015, dated 2020).

Assay [1] deals with 797 NUT midline carcinoma cell line. Briefly: Anti-cancer activity in NUT midline carcinoma cell line.
Assay [2] relates to 10326 NUT midline carcinoma cell line. Described as above.

What is called IC50 is the concentration that gives 50% inhibition.

As for `CC(C)[C@@H]1NC(=O)[C@]2(C)CSC(=N2)c2csc(n2)CNC(=O)C[C@@H](/C=C/CCS)NC1=O`, the “IC50 difference below that of parent largazole” value turned out to be 10 nM in assay [1] (797 cell line) and 20 nM in assay [2] (10326 cell line). Also, the IC50 in assay [1] (read-out: IC50 in 797 cells, 797 NUT midline carcinoma cell line) was determined as 10 nM; in assay [2] (read-out: IC50 in 10326 cells, 10326 NUT midline carcinoma cell line) it was 10 nM.
